Assay: 14 d stability at 37° C. of isotope internal standards in the internal standard solution with different antioxidants (LC-MS/MS peak area)
Type: physicochemical
Protocol: A mixed internal standard working solution was prepared, and concentrations of cyclosporine A-d4, tacrolimus-13C-d4, and sirolimus-d3 were respectively 1 μg/mL, 50 ng/mL and 50 ng/mL; and an additive 1.0 mg/mL vitamin E was added, acetonitrile served as a solvent, and mixed into an internal standard solution.
Supernatant was taken and detected by high performance liquid chromatography-tandem mass spectrometry; and a spectrogram of the standard curve at the lowest point was shown in FIG. 1. Specific analysis conditions were as follows: gradient elution was used to an instrumental method; and the tandem mass spectrum: electrospray ionization (ESI) ion source and positive ion Multiple Reaction Monitoring (MRM) Mode were taken.
Antioxidants included 2,6-di-tert-butyl-p-cresol, vitamin E, vitamin C, β-carotene, and sodium metabisulfite.

Substance: cyclosporine A-d4 [CyclosporineA-d4]
- Peak area of internal standard solution (14 d at 37° C., antioxidant 2,6-di-tert-butyl-p-cresol): 136211
- Peak area of internal standard solution (14 d at 37° C., antioxidant P-carotene): 147555
- Peak area of internal standard solution (14 d at 37° C., antioxidant Sodium metabisulfite): 139515
- Peak area of internal standard solution (14 d at 37° C., antioxidant Vitamin C): 147298
- Peak area of internal standard solution (14 d at 37° C., antioxidant Vitamin E): 143337
- Peak area of internal standard solution (14 d at 37° C., free of adding antioxidant): 129898
- Peak area of internal standard solution (Initial values): 140935

— patent US12135333B2, “Detection kit for detecting immunosuppressors in whole blood by high performance liquid chromatography-tandem mass spectrometry and detection method thereof” (Hangzhou Calibra Diagnostics Co., Ltd., priority 2021, dated 2024)
